Drawing on PubChem BioAssay AID624151 (Broad Institute, 2012), this text covers activation for 1 compound.

Each structure is given as a SMILES string. The list shows a part of the results, in another mix than the full data. Active and inactive are the calls of the source. Cut-off read from the data, not from the text of the source: active = activation above about 52%; inconclusive = no clear call, values can overlap the other calls; inactive = below that.

A short description of this assay: mutant p53 pathway re-activators, primary screen, cell-based, SW480, luciferase, single point, HTS (AID 624151). The following applies: SW480 PUMA-promoter luciferase, p53 mutant reactivation; at 9.98 µM; stronger effect = higher value.
In the case of `CN(C(=O)Cc1ccc(Cl)c(Cl)c1)C1CCCCC1N1CCCC1` (stereo unspecified), the activation was inactive: 4.04%.
